From ChEMBL document CHEMBL1149497, “Complexes of alkylene-linked tacrine dimers with Torpedo californica acetylcholinesterase: Binding of Bis5-tacrine produces a dramatic rearrangement in the active-site gorge” (J Med Chem, 2006)

Columns and labels:
Acetylcholinesterase = Acetylcholinesterase (Rattus norvegicus, UniProt P37136)
Butyrylcholinesterase = Butyrylcholinesterase (Rattus norvegicus, UniProt Q9JKC1)

Compound | IC50 (Acetylcholinesterase) | IC50 (Butyrylcholinesterase)
c1ccc2c(NCCCCCCCCCNc3c4c(nc5ccccc35)CCCC4)c3c(nc2c1)CCCC3 | 31 nM | 155 nM
c1ccc2c(NCCCNc3c4c(nc5ccccc35)CCCC4)c3c(nc2c1)CCCC3 |  | 152 nM
c1ccc2c(NCCCCNc3c4c(nc5ccccc35)CCCC4)c3c(nc2c1)CCCC3 | 157 nM | 252 nM
c1ccc2c(NCCNc3c4c(nc5ccccc35)CCCC4)c3c(nc2c1)CCCC3 | 711 nM | 102 nM
